# scFv variants of Ab-95 (light chain) against a SARS-CoV-2 spike peptide

Source: Engelhart et al. 2022 (doi:10.1038/s41597-022-01779-4), MIT Lincoln Laboratory and A-Alpha Bio; data file from the FLAb repository.

Target peptide (SARS-CoV-2 spike, HR2 region): PDVDLGDISGINAS

Parent: Ab-95, a human scFv built as VH, the linker GGGGSGGGGSGGGGS, VL. Only the CDRs of the light chain vary.
VH: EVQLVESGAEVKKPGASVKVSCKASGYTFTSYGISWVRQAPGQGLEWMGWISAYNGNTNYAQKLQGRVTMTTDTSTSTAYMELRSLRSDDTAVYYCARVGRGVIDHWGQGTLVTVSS
VL: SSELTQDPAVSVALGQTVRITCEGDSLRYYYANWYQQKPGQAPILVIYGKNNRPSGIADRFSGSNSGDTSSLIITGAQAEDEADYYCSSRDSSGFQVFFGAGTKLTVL

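Phage display of a naive human antibody library on the peptide gave the parent. Library AAYL52 holds single substitutions and randomly drawn double and triple substitutions in the CDRs. Affinity was read by AlphaSeq, a pooled yeast mating assay with surface-displayed partners. Mating (16 h, 30 °C) was followed by selection of diploids and sequencing of their barcodes. Each replicate has its own calibration line, from reference interactions of the BCL2 family. The assay was run in three technical replicates.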

Substitutions are numbered in sequence along the VL above, starting at 1 (not Kabat).
Every variant below is changed at G94 of the VL (sequential numbering).
Values are apparent Kd, the geometric mean of the replicates that gave a signal; lower means stronger binding.
A pair that was not seen in any replicate is written "no signal"; this usually means weak binding, but a binder can also be missed.
Empty control strains, which show no peptide, gave a signal in 28% of pairings with library AAYL52; the median was 8.2 µM and 95% of these signals were weaker than 800 nM. No background was subtracted.

* G49Y+R53L+G94N -> 8.1 µM (1 of 3 replicates)
* S26V+Y29R+G94R -> 2.4 µM (2 of 3 replicates)
* E23C+G94R -> 460 nM (2 of 3 replicates)
* G94I+Q96N -> no signal (0 of 3 replicates)
* A32M+R53F+G94D -> 67 µM (2 of 3 replicates)
* D25I+K50Y+G94V -> 6.0 µM (3 of 3 replicates)
* S26F+S93L+G94L -> no signal (0 of 3 replicates)
* G24L+D25P+G94C -> 26 µM (3 of 3 replicates)
* D25V+A32K+G94C -> 52 µM (1 of 3 replicates)
* E23P+G94P -> no signal (0 of 3 replicates)
* D25H+S92A+G94Q -> 1.2 µM (3 of 3 replicates)
* R28C+N51P+G94V -> no signal (0 of 3 replicates)
* L27V+D91M+G94R -> 1.4 µM (3 of 3 replicates)
* N51L+G94S+V97L -> 13 µM (2 of 3 replicates)
* E23L+G24C+G94S -> 13 µM (3 of 3 replicates)
* L27W+R28Q+G94D -> 97 µM (2 of 3 replicates)
* S26Q+R28G+G94S -> 820 nM (1 of 3 replicates)
* L27S+S92R+G94T -> 16 µM (2 of 3 replicates)
* E23S+Y31D+G94T -> 1.1 µM (3 of 3 replicates)
* N33T+S88G+G94A -> 5.1 µM (2 of 3 replicates)
* N51E+G94P+V97G -> 1.2 µM (2 of 3 replicates)
* N33E+S55I+G94T -> 65 µM (1 of 3 replicates)
* G94M+F95S+Q96E -> 1.2 µM (3 of 3 replicates)
* S88W+G94Y+F98C -> no signal (0 of 3 replicates)
* D25I+Y29P+G94L -> 3.9 µM (2 of 3 replicates)
* Y30K+N52D+G94K -> 13 nM (3 of 3 replicates)
* G94A+F95S+Q96I -> 550 nM (3 of 3 replicates)
* Y31I+D91S+G94I -> 14 µM (3 of 3 replicates)
* G24F+S55T+G94K -> 35 µM (1 of 3 replicates)
* Y30R+K50S+G94A -> 94 nM (3 of 3 replicates)
* S88F+D91P+G94Y -> 850 nM (3 of 3 replicates)
* A32L+P54N+G94V -> no signal (0 of 3 replicates)

Excerpt, the final 3 entries:

* Y30R+K50S+G94A: 94 nM (3 of 3 replicates)
* S88F+D91P+G94Y: 850 nM (3 of 3 replicates)
* A32L+P54N+G94V: no signal (0 of 3 replicates)